The record followed here is US10548896B2, “Treatment of relapsed and/or refractory solid tumors and non-Hodgkin's lymphomas” (CELGENE QUANTICEL RESEARCH, INC., priority 2016, dated 2020).

Bounds are passed on as bounds.

In experiment [1] the test system is ST18 and FREM2 gene expression in MKL-1 cells. The conditions noted are these: 3 days, 0 to 200 nM.
Another experiment concerns MKL-1 hMCC cells. The experiment can be described thus: cells. The conditions noted are these: Homo sapiens, MKL-1, 168 h.
The next experiment has as its system MS-1 hMCC cells. The experiment can be described thus: cells. The conditions noted are these: Homo sapiens, 168 h.
For experiment [2], the system named is ST18 and FREM2 gene expression in MS-1 cells. Conditions: 3 days, 0 to 200 nM.

Usually IC50 stands for the concentration at which inhibition is half-maximal. Read a low IC50 as higher potency.

For `COc1ccc(-c2c(-c3ccc(C#N)c(F)c3)nc(N3CCC(N)CC3)n(C)c2=O)cc1F` [Compound A, 4-[2-(4-amino-piperidin-1-yl)-5-(3-fluoro-4-methoxy-phenyl)-1-methyl-6-oxo-1,6-dihydro-pyrimidin-4-yl]-2-fluoro-benzonitrile], the “EC50 values for modulation of ST18 and FREM2 gene expression” value in experiment [1] and in experiment [2] was “correlated with the IC50 values” throughout. The IC50 in the experiment with MKL-1 hMCC cells and in the experiment on MS-1 hMCC cells was under 20 nM each time.
